The results in this text go back to US8293782B2, “Compound, probe containing the novel compound, and fluorescence-imaging contrast agent containing the novel compound or the probe” (Canon Kabushiki Kaisha, priority 2009, dated 2012).

One data set relates to Suit2 tumor cells. As to the kind of experiment: Fluorescence kinetics evaluation in tumor-bearing site, Suit2 tumor-transplanted-model mouse. Conditions: intensity before injection = 1.
Data set [1] in a line: Fading evaluation in fetal bovine serum under interior light (680 LUX). Conditions: 5 μM in FBS, absorbance at maximum absorption wavelength after 24 hours. Type of data set: physicochemical. How it is done: The ordinate of FIG. 10 indicates log(At/A0) where A0 and At respectively represent absorbance at the maximum absorption wavelength after the lapse of 0 and t hours from the irradiation of the interior light. The fading rate in Table 1 is expressed by (A0-A24)/A0, that is, variation in absorbance at the maximum absorption wavelength after the lapse of 24 hours.

Take Alexa Fluor (trademark) 750 [Reagent 1]: the “Relative fluorescence intensity at tumor-bearing site” value in the data set on Suit2 tumor cells (15 minutes after administration) was 34.1; in the data set with Suit2 tumor cells (1 hour after administration) it was 26.2; with Suit2 tumor cells (3 hours after administration), 26.3; in the data set on Suit2 tumor cells (5 hours after administration), 24.5; in the data set on Suit2 tumor cells (1 day after administration), 22.4; in the data set with Suit2 tumor cells (2 days after administration), 18.1. Besides, the “Relative fluorescence intensity at tumor-bearing site” value in the data set with Suit2 tumor cells (3 days after administration) was determined as 13.7.
For the substance Alexa Fluor (trademark) 790 [Reagent 2], the “Fading rate (A0-A24)/A0” value in data set [1] is given as 3.4%.
